{"sequences": {"note": "Amino acid sequences for entries named in this document (tags omitted). A change or cut given only in a name is not applied to a line headed by its entry.", "UniProt P28845": "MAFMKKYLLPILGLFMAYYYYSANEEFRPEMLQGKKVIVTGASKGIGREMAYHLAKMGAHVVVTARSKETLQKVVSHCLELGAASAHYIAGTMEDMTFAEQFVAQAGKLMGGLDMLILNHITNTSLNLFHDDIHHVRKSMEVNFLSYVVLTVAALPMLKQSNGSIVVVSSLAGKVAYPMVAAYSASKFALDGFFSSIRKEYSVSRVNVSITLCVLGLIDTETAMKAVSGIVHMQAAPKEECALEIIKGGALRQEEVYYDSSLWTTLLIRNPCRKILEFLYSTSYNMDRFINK"}, "source": "patent US7230020B2", "about": "“11β-hydroxysteroid dehydrogenase inhibitors” (priority 2003, dated 2007)", "target": "T1, human hepatic microsomal 11β HSD1 (Homo sapiens, UniProt P28845)", "T1 construct": "human hepatic microsomes were obtained from XenoTech, product H0610/Lot 0210078; tissue XenoTech H0610/Lot 0210078; host or cells: human liver (hepatic microsomes)", "test": "biochemical", "details": "classical enzyme assay, Buffer 1, 175 nM cortisone, 5 μg microsomal protein, 30 mins at 37° C. (FIG. 8)"}
{"smiles": "CC1(C)[C@@H](OC(=O)CCC(=O)O)CC[C@]2(C)[C@H]3C(=O)C=C4[C@@H]5C[C@@](C)(C(=O)O)CC[C@]5(C)CC[C@@]4(C)[C@]3(C)CC[C@@H]12", "note": "[carbenoxolone, Carbenoxolone, reference compound]", "values": [{"measurement": "IC50", "value": 119, "unit": "nM"}]}
